According to published antibiotic growth screens (doi:10.1038/s41589-023-01349-8):
The other results are listed elsewhere or left out.

What follows are compounds tested on A. baumannii ATCC 17978 (assay: relative growth (fraction of control); higher = less inhibition). Settings: 50 µM.
In the case of `O=C(C[C@@H]1C[C@H]2c3cc(NC(=O)Cc4ccncc4)ccc3O[C@H]2[C@H](CO)O1)NCc1ccc2c(c1)OCO2`, the relative growth is reported as 0.954. `CC(C)NC(=O)[C@@H]1c2ccccc2C(=O)N(Cc2cc(F)cc(C(F)(F)F)c2)[C@H]1c1ccc(CO)cc1` gave a relative growth of 0.873. `CCN1CCC[C@@H]1CN1CNC(=S)NC1` gave a relative growth of 0.892. Compound `NNC(=O)c1ccccn1` has a relative growth of 1.01. Work on `COC(=O)c1cn(CC(N)=O)c2ccccc12` yielded a relative growth of 1.12. In the case of `COCCOC(=O)N1C(=O)[C@@]2(c3cc(C#Cc4ccc(OC)cc4)ccc31)[C@H](C(=O)NC[C@H](O)c1ccccc1)[C@H]1C(=O)O[C@H](c3ccccc3)[C@H](c3ccccc3)N1[C@@H]2c1ccc(O)cc1`, the relative growth is reported as 0.85. Work on `Cc1nn(-c2nc3c(c(=O)n(CC(N)=O)c(=O)n3C)n2C)c(C)c1C` yielded a relative growth of 1.77. `CO[C@H]1CN(C)C(=O)c2ccc(NC(=O)Nc3ccc(Cl)cc3)cc2OC[C@@H](C)N(C(=O)Nc2c(C)noc2C)C[C@H]1C` showed a relative growth of 1.01. `O=C(CCCCCC(=O)N/N=C/[C@H](O)[C@@H](O)[C@H](O)[C@H](O)CO[C@H]1O[C@H](CO)[C@H](O)[C@H](O)[C@H]1O)NO` gave a relative growth of 0.91. Compound `CC(N/C(=N/C#N)Nc1ccncc1)C(C)(C)C` (configuration not stated) has a relative growth of 1.05. Compound `CC(=O)OCC(COC(C)=O)OC(C)=O` has a relative growth of 1.03. Work on `CCCCCCCCCCCCCCCC(=O)OCC(O)[C@H]1OC(=O)C(O)=C1O` (some centres not stated) yielded a relative growth of 1.23. In the case of `C[C@@H]1COCCC(=O)N1`, the relative growth is reported as 1.12. `CC1CN(c2c(F)c(N)c3c(=O)c(C(=O)O)cn(C4CC4)c3c2F)C[C@H](C)N1` (some centres not stated) was tested, and the relative growth was 0.172. Work on `c1ccc(-c2[nH]nc3ccccc23)cc1` yielded a relative growth of 0.925. In the case of `O=c1ncccn1[C@@H]1O[C@H](CO)[C@@H](O)[C@H]1O`, the relative growth is reported as 0.999. Work on `O=C(C[C@H]1C=C[C@H](NC(=O)Cc2ccccn2)[C@@H](CO)O1)NCCc1ccncc1` yielded a relative growth of 1.05. Work on `O=C(C[C@H]1CC[C@H]2[C@@H](COC[C@@H](O)CN2C(=O)Nc2cccc(F)c2)O1)NCCCN1CCOCC1` yielded a relative growth of 0.997. Compound `Cc1cc(C)c(S(N)(=O)=O)cc1S(N)(=O)=O` has a relative growth of 0.929. `NC(CO)(CO)CO` was tested, and the relative growth was 0.881. Compound `O=c1[nH]cnc2c1ncn2C1O[C@H](CO)[C@@H](O)[C@H]1O` (some centres not stated) has a relative growth of 0.985. `COc1ccc([C@H]2COc3c(ccc(O)c3OC)C2)c(OC)c1O` was tested, and the relative growth was 0.857. `CN1CCN(C(=O)C[C@H]2CC[C@@H]3[C@H](COC[C@@H](O)CN3Cc3ccc4c(c3)OCO4)O2)CC1` gave a relative growth of 0.858. `COc1ccc2c(c1)OCc1c-2oc2cc(OC)ccc12` gave a relative growth of 1.04. With `CCOc1nc2ccccc2c(=O)n1CCO` the relative growth was 1.06. In the case of `Cc1ccc(S(=O)(=O)NCCC(=O)O)cc1`, the relative growth is reported as 1.05. Work on `C(=N\c1ccccc1)/c1ccc(Oc2ccccc2)cc1` yielded a relative growth of 1.15. `C[C@@H]1CCCCO[C@@H](CN(C)Cc2ccc3c(c2)OCO3)[C@@H](C)CN([C@H](C)CO)C(=O)c2cc(NS(=O)(=O)c3cccs3)ccc2O1` was tested, and the relative growth was 1.06. Work on `COCC(=O)N1C[C@H](C)[C@@H](OC)CN(C)C(=O)c2ccc(NC(=O)c3cc(C)on3)cc2OC[C@H]1C` yielded a relative growth of 1.2. `C[C@@H](NC(=O)C[C@@H]1CC[C@H](NC(=O)CN2CCOCC2)[C@@H](CO)O1)c1ccccc1` was tested, and the relative growth was 0.923. `COc1nc(=NC(=O)NS(=O)(=O)Nc2cccc3cccnc23)nc(OC)[nH]1` gave a relative growth of 0.936. `CC(C)NC(=O)[C@@H](N)c1ccccc1` gave a relative growth of 1.04. `NC(=O)N1c2ccccc2C=Cc2ccccc21` showed a relative growth of 0.859. Work on `C[C@H]1C(=O)CCC2[C@]3(C)CC[C@@]4(C)C5CC(C)(C)CC[C@]5(C)CC[C@]4(C)C3CC[C@@]21C` (some centres not stated) yielded a relative growth of 0.904. `C=CCC[C@@H](Cc1ccc(F)cc1)C(=O)OC[C@@H](NC(=O)[C@@H](CC=C)CC(=O)N(CCO)Cc1ccccc1)C(C)(C)C` showed a relative growth of 0.969. `Cc1ccc(S(=O)(=O)N[C@@H](Cc2ccccc2)C(=O)NCCCn2cc(CN3C(=O)COC[C@H]3c3ccccc3)nn2)cc1` was tested, and the relative growth was 0.862. For `CO[C@@H](CN(C)C(=O)Nc1ccc(C(F)(F)F)cc1)[C@H](C)CN(Cc1ccccc1Cl)[C@@H](C)CO`, the relative growth was 0.688. `COc1cccc(NC(=O)N[C@@H]2C=C[C@@H](CC(=O)N3CCN(C)CC3)O[C@H]2CO)c1` showed a relative growth of 0.974. Compound `CCC(CC)c1nc(Nc2ccccc2)c2ccccc2n1` has a relative growth of 0.807. Compound `COc1ccc([C@H]([C@@H](O)Cc2ccccc2)N(C[C@H](/C=C/c2ccccc2)CC(=O)N(C)C)[C@@H](Cc2ccccc2)C(OC)OC)cc1` has a relative growth of 1.17. With `C[C@H](CO)N1C[C@H](C)[C@@H](CN(C)S(=O)(=O)c2ccccc2)Oc2cc(Br)ccc2S1(=O)=O` the relative growth was 1.01. `COc1ccc([Si](C)(C)[C@H]2[C@H](CC(=O)N3CCC[C@H]3CO)O[C@@]3(C(=O)N(Cc4cccc(N5CCCCC5=O)c4)c4ccccc43)[C@@H]2C)cc1` gave a relative growth of 1.11. `Nc1ncn([C@@H]2O[C@H](CO)[C@@H](O)[C@H]2O)c(=O)n1` gave a relative growth of 0.977. In the case of `C[C@H]1CN([C@@H](C)CO)C(=O)Cc2cc(NC(=O)Nc3cccc(C(F)(F)F)c3)ccc2O[C@H]1CN(C)S(=O)(=O)c1ccc(Oc2ccccc2)cc1`, the relative growth is reported as 1. For `C[C@@H]1O[C@@H](O[C@@H]2[C@@H](O)[C@H](O)[C@@H](CO)O[C@H]2c2c(O)cc3oc(-c4ccc(O)cc4)cc(=O)c3c2O)[C@H](O)[C@H](O)[C@H]1O`, the relative growth was 1.17. Work on `COc1ccccc1S(=O)(=O)N[C@H]1C=C[C@H](CC(=O)N2CCN(C)CC2)O[C@H]1CO` yielded a relative growth of 0.921. `Cc1ccnc(NC(=O)Cn2cnc3c2c(=O)n(C)c(=O)n3C)c1` gave a relative growth of 1.02. In the case of `O=C(Nc1ccn([C@H]2O[C@H](CO)[C@@H](O)[C@@H]2O)c(=O)n1)c1ccccc1`, the relative growth is reported as 1.04. Work on `CC(C)NC(=O)[C@@H](C)n1ncn2cccc2c1=O` yielded a relative growth of 1.04. `CC(C)/C(=N/O)c1ccccc1` gave a relative growth of 1. Work on `Cc1ccc(S(=O)(=O)O)cc1.NC1CCN(c2nc3c(cc2F)c(=O)c(C(=O)O)cn3-c2ccc(F)cc2F)C1.O` (configuration not stated) yielded a relative growth of 0.478. In the case of `COc1ccccc1NC(=O)N(C)C[C@@H]1Oc2cc(Br)ccc2S(=O)(=O)N([C@@H](C)CO)C[C@H]1C`, the relative growth is reported as 0.799. In the case of `CC(=O)c1ccc(S(=O)(=O)NC(=O)NC2CCCCC2)cc1`, the relative growth is reported as 1.01. `CCOC(=O)CC1=NC(=O)CS1` was tested, and the relative growth was 1.04. With `O=C(N[C@@H]1CC[C@H](CCNS(=O)(=O)c2ccccc2)O[C@H]1CO)c1cnccn1` the relative growth was 1.04. Work on `CO/N=C1\CN(c2nc3c(cc2F)c(=O)c(C(=O)O)cn3C2CC2)C[C@@H]1CN` yielded a relative growth of 0.121. `O=C(NCc1ccccc1)OCCO` showed a relative growth of 0.9. In the case of `C[C@H]1CN([C@@H](C)CO)S(=O)(=O)c2ccc(C#Cc3cccc(F)c3)cc2O[C@@H]1CN(C)S(=O)(=O)c1ccccc1F`, the relative growth is reported as 1.23. Work on `O=C1CCCNc2ccc(Cl)cc21` yielded a relative growth of 0.912. `Cc1cccc(NC(=O)Nc2ccc3c(c2)C(=O)N(C)[C@@H]2CC[C@@H](CC(=O)NCc4ccccc4Cl)O[C@H]2CO3)c1` was tested, and the relative growth was 1.07. Work on `C[C@@H](NC=C1C(=O)OC(C)(C)OC1=O)C(=O)O` yielded a relative growth of 0.952. `CCCNC(=O)N[C@@H]1CC[C@H](CC(=O)N2CCN(C)CC2)O[C@H]1CO` gave a relative growth of 1.06. `O=C1N[C@H](Cc2c[nH]c3ccccc23)COC(=O)[C@@H](Cc2ccc(F)cc2)CCC=CC[C@@H]1CC(=O)N(CCO)Cc1ccccc1` gave a relative growth of 1.03. `CCC(=O)N(C)C[C@@H]1Oc2ncc(C#C[C@H](C)O)cc2C(=O)N([C@H](C)CO)C[C@H]1C` gave a relative growth of 1. With `Cc1nc2ccccc2n1Cc1ccc(Cl)cc1` the relative growth was 0.145. Compound `CCN1CC(CCN2CCOCC2)C(c2ccccc2)(c2ccccc2)C1=O.Cl` (configuration not stated) has a relative growth of 1.27. For `Cc1cc(=O)oc2cc(O)ccc12`, the relative growth was 0.824. In the case of `COc1ccc(S(=O)(=O)N(C)C[C@@H]2Oc3cc(C4=CCCC4)ccc3S(=O)(=O)N([C@@H](C)CO)C[C@H]2C)cc1`, the relative growth is reported as 1.11. Compound `O=C(Nc1cccc(C(F)(F)F)c1)c1ccc2ccccc2c1` has a relative growth of 0.983. `NCC[C@H]1CC[C@@H](NC(=O)C2CCCCC2)[C@@H](CO)O1` showed a relative growth of 1.23. In the case of `COc1ccccc1S(=O)(=O)N1C[C@H](O)COC[C@H]2O[C@@H](CC(=O)O)CC[C@@H]21`, the relative growth is reported as 1.1. In the case of `COc1ccc([C@H]([C@@H](O)Cc2ccccc2)N(CC#C[C@@H](O[Si](c2ccccc2)(c2ccccc2)C(C)(C)C)c2ccccc2)[C@@H](Cc2ccccc2)C(OC)OC)cc1`, the relative growth is reported as 1.4. Work on `COCC(=O)N1c2ccccc2C[C@H]1C(N)=O` yielded a relative growth of 1.13. In the case of `CC[C@@H]1CN(C(=O)OC)N1`, the relative growth is reported as 1.02. Compound `CN(C)CCCCCCNC(=O)[C@H]1C[C@H]2C(=O)N[C@@H](CCCC[N+](C)(C)C)C(=O)N2[C@H]1c1cccc(OCCO)c1` has a relative growth of 0.96. For `Cc1cccc(CN2CCN(C(c3ccccc3)c3ccc(Cl)cc3)CC2)c1.Cl.Cl` (configuration not stated), the relative growth was 1.2. For `C[C@]12C=CC(=O)C=C1CCC1C2[C@@H](O)C[C@@]2(C)C1CC[C@]2(O)C(=O)COC(=O)CCC(=O)O` (some centres not stated), the relative growth was 0.551. Compound `O=S(=O)(NCC[C@H]1CC[C@@H](NS(=O)(=O)c2ccccc2Cl)[C@H](CO)O1)c1ccc(F)cc1` has a relative growth of 1.2. `O=C(C[C@H]1CC[C@H](NC(=O)C2CC2)[C@H](CO)O1)NCCCN1CCOCC1` was tested, and the relative growth was 0.818. In the case of `C[C@@H]1CN([C@H](C)CO)S(=O)(=O)c2ccc(C#Cc3ccccc3F)cc2O[C@@H]1CN(C)CC1CC1`, the relative growth is reported as 0.819. For `Cl.NCCCC(N)C(=O)O` (configuration not stated), the relative growth was 0.832. Compound `CCc1[nH]c(=S)[nH]c(=O)c1C#N` has a relative growth of 0.897. For `O=C(C[C@H]1CC[C@H]2[C@@H](COC[C@H](O)CN2S(=O)(=O)c2ccc(Cl)cc2)O1)NCCN1CCCCC1`, the relative growth was 0.98. Work on `COc1cc(C(=O)O)cc(OC)c1O` yielded a relative growth of 0.961. In the case of `C[C@H]1CCCN(S(=O)(=O)CCN)C1`, the relative growth is reported as 1.05. In the case of `C=CC[C@@H](CC(=O)NCCO)C(=O)N[C@@H](COC(=O)[C@@H](CC=C)CC(=O)OC(C)(C)C)Cc1c[nH]c2ccccc12`, the relative growth is reported as 1.01. With `C[C@H]1CN([C@@H](C)CO)C(=O)CCCn2nncc2CO[C@H]1CN(C)S(=O)(=O)c1ccc(Cl)cc1` the relative growth was 0.978.
